For two molecules, EC50 and Ki results are on record in US20130116277A1, “ALDO-KETO REDUCTASE SUBFAMILY 1C3 (AKR1C3) INHIBITORS” (priority 2007, published 2013).

By UniProt entry, the sequences of proteins in these tests, tags left out. Residues count along the entry.
UniProt P03372, whole entry, species assumed: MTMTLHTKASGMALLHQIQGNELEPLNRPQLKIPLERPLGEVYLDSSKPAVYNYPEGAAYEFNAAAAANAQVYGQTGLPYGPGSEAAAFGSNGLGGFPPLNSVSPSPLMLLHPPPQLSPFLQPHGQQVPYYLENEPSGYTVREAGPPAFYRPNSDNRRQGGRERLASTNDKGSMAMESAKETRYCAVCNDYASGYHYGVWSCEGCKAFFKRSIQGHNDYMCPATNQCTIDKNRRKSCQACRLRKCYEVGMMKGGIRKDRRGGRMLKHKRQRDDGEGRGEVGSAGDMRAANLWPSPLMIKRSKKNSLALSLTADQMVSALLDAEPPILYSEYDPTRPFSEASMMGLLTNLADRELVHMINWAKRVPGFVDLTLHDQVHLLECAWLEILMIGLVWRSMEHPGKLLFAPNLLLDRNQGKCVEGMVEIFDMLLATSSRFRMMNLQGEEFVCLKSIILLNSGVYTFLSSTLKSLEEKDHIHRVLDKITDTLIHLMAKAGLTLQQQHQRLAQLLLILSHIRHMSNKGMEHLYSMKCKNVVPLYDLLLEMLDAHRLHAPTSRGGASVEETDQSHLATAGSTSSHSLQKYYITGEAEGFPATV
UniProt P03372, 311-547 limits assumed, species assumed: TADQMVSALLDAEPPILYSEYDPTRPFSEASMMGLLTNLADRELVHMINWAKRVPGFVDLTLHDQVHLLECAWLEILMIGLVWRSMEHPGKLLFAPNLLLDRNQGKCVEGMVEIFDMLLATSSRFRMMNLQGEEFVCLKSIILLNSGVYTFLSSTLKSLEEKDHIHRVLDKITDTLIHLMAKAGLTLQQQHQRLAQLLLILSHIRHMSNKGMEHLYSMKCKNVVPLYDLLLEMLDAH

Bounds are passed on as bounds.

One experiment deals with ER-alpha (Homo sapiens, UniProt P03372). Description: ER-alpha transactivation (ERE-LUC luciferase) in HEK-293 cells.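 Note: HEK-293 cells co-transfected with an ER-alpha expression plasmid, an ERE-driven firefly luciferase reporter and a CMV Renilla control, with the firefly signal normalized to Renilla.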
The target of the next experiment is ER-α (Homo sapiens, UniProt P03372).

Regarding `O=c1c2ccc(O)cc2c(-c2ccccc2)cn1-c1ccc(O)cc1` [Compound 15a, 6-hydroxy-2-(4-hydroxyphenyl)-4-phenylisoquinolin-1(2H)-one], the EC50 at ER-alpha is more than 10 µM.
In the case of `COc1ccc(-c2cn(-c3ccc(O)cc3)c(=O)c3c(O)cc(O)cc23)cc1` [Compound 15g, 6,8-dihydroxy-2-(4-hydroxyphenyl)-4-(4-methoxyphenyl)isoquinolin-1(2H)-one], the inhibition constant Ki at ER-α worked out at 0.0632 µM. Further, the EC50 on ER-alpha is more than 10 µM.

A word on the EC50: it is the concentration needed to bring the measured effect to its halfway point. The low end stands for an effect from little substance, the high end for a need for much substance. Usually Ki stands for the dissociation constant of the complex between target and ligand, obtained from inhibition or displacement. Higher therefore signals lower affinity.
